Molecular target: E. coli GUS (Escherichia coli, UniProt P05804)
Format: biochemical
Conditions: purified L1 enzyme, in vitro

Chains of the proteins cited; added tags and fusions are not shown. Lines headed by an entry give the natural chain unless they say otherwise; changes in a name come on top.
UniProt P05804: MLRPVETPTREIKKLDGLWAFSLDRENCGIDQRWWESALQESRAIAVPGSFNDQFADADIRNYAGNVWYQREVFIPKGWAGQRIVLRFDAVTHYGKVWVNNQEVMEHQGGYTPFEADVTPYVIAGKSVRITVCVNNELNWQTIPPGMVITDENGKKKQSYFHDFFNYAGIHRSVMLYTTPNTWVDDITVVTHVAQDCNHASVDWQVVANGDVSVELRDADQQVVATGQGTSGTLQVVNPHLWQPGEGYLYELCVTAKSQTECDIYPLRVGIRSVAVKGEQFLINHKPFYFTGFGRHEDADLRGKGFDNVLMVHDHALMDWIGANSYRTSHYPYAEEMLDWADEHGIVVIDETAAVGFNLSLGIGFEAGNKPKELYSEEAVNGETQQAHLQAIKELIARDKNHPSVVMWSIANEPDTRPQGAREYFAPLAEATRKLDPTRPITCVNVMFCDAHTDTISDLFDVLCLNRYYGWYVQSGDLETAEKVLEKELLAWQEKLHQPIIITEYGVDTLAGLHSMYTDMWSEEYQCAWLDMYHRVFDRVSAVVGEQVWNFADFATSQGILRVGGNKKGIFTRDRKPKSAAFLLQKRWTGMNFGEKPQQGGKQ

CCOc1ccc(NC(=S)N(CCO)Cc2cc3cc(C)cc(C)c3[nH]c2=O)cc1 [Inh1, reference compound]
inhibition of SN-38-G processing (apparent kcat): strong activity

Reference: patent US20200010479A1, “INHIBITORS OF MICROBIAL BETA-GLUCURONIDASE ENZYMES AND USES THEREOF” (THE UNIVERSITY OF NORTH CAROLINA AT CHAPEL HILL, priority 2017, published 2020)
